A short description of this series: pH. It is filed as physicochemical. As to conditions: Table 3.

“diethylenetriamine/2 mol 1-epoxyoctane adduct [Example 2]” came in with a pH of 10.9.

Source of the values: patent publication US8815007B2, “Alkoxylated polyamines and polyetheramine polyol compositions for foam control” (priority 2007, dated 2014).
